Data on one molecule can be found in patent US10328116B2, “Combinations of proteasome inhibitors and cyclic peptides” (BIG DNA LTD, priority 2014, dated 2019).

The assay relates to T47D breast cancer cell line. The experiment in a line: Sulforhodamine B viability, isobologram and combination index in T47D cells (Examples 4-5). As to the method:
For assessment of combined BTZ and cilengitide toxicity, T47D cells were seeded at a density of 7500 cells/cm^2 in 96-well cell culture plates and incubated for 24 hours. Cilengitide was diluted to 20 μM in complete DMEM, then 3 serial tenfold dilutions of this were performed in complete DMEM (2 μM, 200 nM and 20 nM). Complete DMEM containing no cilengitide was provided for negative controls.
These dilutions (or DMSO for wells containing no BTZ) were added to aliquots of complete DMEM containing 0-20 μM cilengitide for a 1/150 dilution. Aliquots (0.1 mL) of each mixture were added to wells already containing 0.1 mL medium (in duplicate), resulting in a matrix of cilengitide (10 nM-10 μM) and/or BTZ (1 nM-10 μM) or neither agent (diluent only).
OD570nm readings were divided by those resulting from negative control (diluent only) wells and expressed as a percentage. Three independent replicates of this experiment were carried out.
The isoboles were obtained similarly by extrapolation of points representing 50% reduction in viability from line graphs of % viability versus concentration of one agent at variable concentration with the other agent supplied at a fixed concentration. […]

In the case of `CC(C)C[C@H](NC(=O)[C@H](Cc1ccccc1)NC(=O)c1cnccn1)B(O)O` [Bortezomib], the viability at 0.01 µM (Homo sapiens, 24 h, read-out: viability compared with the untreated controls) turned out to be 80%. In addition, where the note is “single agent at its IC50”, the “CI (combination index)” value turned out to be 1.00.

As a reminder, the viability is a per cent measure of how many cells are alive, often set against a control.
